Values quoted from earlier work, collected in US6566120B2, “Conversion of compactin to pravastatin by Actinomadura” (Massachusetts Institute of Technology, priority 1995, dated 2003).

Target: T1, 3-hydroxy-3-methylglutaryl (HMG)-CoA reductase (Homo sapiens, UniProt P04035)
T1 sequence (P04035 1-888): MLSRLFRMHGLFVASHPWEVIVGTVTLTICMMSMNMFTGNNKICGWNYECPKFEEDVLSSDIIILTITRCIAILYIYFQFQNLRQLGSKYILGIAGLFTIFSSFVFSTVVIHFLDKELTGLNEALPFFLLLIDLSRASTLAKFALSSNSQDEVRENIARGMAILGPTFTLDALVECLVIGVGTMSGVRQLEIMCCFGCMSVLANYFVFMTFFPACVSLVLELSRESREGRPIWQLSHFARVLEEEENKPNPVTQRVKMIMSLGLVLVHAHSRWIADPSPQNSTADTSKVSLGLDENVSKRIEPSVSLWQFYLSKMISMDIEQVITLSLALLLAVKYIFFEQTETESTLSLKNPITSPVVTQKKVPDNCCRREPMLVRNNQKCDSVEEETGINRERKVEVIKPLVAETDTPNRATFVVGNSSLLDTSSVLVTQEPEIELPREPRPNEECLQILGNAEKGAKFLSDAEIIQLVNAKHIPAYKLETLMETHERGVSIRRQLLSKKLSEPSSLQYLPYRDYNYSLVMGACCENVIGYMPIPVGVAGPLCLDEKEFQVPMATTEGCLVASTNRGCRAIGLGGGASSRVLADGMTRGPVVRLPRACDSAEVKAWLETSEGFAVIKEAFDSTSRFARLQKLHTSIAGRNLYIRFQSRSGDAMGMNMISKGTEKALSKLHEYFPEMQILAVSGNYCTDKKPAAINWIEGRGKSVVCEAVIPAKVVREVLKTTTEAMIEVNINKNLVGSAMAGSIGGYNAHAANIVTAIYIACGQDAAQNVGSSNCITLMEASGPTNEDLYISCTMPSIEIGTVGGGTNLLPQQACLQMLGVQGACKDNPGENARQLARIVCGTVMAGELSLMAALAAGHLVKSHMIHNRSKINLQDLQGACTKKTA
Settings: have been reported; cited from earlier work

Question: Which “inhibition of HMG-CoA reductase” value does the source give for compactin here?
Answer: competitive inhibitors
